Values belong to the compound of their own block, whether it stands above or below them. Activity calls are given as the source filed them. No cut-off for these calls is given here.
Legend:
[1] = molecular target: T1, Tyrosine-protein kinase TXK (Homo sapiens) (UniProt P42681); settings: dose 250.0 nM
T1 sequence (whole entry): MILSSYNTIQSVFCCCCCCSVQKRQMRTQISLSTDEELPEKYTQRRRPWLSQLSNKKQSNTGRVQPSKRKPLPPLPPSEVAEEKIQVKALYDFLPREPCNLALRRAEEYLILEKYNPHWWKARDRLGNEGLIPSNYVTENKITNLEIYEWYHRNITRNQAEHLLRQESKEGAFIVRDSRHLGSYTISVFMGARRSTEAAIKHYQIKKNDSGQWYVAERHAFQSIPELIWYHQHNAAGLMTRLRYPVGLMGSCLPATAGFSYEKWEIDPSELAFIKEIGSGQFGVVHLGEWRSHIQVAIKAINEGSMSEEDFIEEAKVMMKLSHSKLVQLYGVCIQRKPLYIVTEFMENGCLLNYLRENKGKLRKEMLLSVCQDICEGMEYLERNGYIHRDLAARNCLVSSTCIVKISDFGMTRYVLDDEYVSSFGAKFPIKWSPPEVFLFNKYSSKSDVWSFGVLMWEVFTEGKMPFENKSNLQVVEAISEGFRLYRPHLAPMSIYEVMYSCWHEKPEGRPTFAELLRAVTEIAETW

By UniProt entry, the sequences of proteins in these tests, tags left out. Where a name states a change or a piece, a line headed by the entry shows the natural chain unless it says otherwise.
UniProt P07947, whole entry, looked up: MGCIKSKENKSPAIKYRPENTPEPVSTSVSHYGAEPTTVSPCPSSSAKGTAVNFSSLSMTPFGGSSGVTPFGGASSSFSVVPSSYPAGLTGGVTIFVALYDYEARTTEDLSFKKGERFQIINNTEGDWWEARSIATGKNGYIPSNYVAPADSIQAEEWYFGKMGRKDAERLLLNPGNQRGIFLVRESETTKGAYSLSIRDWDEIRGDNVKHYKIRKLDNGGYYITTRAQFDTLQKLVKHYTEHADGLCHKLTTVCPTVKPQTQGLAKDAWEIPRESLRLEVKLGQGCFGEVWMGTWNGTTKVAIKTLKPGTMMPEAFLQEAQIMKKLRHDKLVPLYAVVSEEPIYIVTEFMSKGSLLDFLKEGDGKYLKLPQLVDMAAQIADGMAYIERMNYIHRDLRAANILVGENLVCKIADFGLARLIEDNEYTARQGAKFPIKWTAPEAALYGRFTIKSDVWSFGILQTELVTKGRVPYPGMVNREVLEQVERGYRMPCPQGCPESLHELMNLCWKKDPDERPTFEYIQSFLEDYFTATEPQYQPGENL
UniProt Q05397, whole entry, looked up: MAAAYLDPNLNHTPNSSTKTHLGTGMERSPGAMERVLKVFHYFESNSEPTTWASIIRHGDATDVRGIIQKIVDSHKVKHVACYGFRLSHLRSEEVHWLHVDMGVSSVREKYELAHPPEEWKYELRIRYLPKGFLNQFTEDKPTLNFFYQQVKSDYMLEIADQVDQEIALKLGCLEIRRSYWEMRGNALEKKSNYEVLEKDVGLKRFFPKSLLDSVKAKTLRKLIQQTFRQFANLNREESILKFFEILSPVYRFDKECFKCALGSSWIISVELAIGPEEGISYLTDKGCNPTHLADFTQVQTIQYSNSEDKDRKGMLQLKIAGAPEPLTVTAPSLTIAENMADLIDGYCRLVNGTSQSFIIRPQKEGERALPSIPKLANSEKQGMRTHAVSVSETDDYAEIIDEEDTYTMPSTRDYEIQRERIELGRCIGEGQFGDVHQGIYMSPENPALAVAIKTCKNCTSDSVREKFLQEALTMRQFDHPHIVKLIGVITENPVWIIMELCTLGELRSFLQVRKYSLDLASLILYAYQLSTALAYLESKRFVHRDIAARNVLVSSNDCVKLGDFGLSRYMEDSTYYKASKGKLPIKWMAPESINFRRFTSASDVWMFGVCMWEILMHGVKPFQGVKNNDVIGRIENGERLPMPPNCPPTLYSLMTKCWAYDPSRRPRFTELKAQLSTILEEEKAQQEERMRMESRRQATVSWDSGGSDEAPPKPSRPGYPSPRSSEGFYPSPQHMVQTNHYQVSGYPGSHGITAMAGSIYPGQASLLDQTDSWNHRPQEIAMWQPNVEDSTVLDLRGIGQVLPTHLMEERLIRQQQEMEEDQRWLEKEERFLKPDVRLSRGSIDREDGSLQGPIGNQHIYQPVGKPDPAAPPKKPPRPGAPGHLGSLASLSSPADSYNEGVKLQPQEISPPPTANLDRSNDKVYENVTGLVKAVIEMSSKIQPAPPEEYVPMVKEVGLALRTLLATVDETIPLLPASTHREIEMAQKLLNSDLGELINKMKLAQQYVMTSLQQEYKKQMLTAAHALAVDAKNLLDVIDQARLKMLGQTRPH
UniProt P29317, whole entry: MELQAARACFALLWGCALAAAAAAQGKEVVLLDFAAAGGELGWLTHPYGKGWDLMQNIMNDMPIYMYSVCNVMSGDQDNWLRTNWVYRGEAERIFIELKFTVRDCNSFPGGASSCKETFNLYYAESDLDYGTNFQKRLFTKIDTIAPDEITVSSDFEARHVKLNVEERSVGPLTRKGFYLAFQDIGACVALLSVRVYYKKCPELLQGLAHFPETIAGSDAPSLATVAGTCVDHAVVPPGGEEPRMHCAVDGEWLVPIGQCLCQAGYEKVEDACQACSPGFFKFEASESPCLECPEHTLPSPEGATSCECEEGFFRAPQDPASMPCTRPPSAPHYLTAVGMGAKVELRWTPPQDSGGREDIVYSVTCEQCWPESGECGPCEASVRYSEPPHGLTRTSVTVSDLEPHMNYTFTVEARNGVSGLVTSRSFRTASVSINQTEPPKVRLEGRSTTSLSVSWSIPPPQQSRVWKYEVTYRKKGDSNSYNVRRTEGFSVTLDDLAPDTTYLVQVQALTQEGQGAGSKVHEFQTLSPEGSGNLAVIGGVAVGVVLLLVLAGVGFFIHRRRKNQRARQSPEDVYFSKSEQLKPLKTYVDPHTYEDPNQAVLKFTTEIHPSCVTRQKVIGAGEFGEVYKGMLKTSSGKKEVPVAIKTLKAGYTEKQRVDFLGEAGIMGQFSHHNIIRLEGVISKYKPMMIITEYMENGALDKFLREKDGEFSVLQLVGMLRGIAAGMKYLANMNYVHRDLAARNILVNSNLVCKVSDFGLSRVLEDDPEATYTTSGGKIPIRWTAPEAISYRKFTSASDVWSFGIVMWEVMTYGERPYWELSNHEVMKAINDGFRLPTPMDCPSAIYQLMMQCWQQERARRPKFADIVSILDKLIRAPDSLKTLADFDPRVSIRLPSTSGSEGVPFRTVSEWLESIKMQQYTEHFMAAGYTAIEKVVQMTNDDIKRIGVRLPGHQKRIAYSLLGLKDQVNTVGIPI
UniProt P54764, whole entry: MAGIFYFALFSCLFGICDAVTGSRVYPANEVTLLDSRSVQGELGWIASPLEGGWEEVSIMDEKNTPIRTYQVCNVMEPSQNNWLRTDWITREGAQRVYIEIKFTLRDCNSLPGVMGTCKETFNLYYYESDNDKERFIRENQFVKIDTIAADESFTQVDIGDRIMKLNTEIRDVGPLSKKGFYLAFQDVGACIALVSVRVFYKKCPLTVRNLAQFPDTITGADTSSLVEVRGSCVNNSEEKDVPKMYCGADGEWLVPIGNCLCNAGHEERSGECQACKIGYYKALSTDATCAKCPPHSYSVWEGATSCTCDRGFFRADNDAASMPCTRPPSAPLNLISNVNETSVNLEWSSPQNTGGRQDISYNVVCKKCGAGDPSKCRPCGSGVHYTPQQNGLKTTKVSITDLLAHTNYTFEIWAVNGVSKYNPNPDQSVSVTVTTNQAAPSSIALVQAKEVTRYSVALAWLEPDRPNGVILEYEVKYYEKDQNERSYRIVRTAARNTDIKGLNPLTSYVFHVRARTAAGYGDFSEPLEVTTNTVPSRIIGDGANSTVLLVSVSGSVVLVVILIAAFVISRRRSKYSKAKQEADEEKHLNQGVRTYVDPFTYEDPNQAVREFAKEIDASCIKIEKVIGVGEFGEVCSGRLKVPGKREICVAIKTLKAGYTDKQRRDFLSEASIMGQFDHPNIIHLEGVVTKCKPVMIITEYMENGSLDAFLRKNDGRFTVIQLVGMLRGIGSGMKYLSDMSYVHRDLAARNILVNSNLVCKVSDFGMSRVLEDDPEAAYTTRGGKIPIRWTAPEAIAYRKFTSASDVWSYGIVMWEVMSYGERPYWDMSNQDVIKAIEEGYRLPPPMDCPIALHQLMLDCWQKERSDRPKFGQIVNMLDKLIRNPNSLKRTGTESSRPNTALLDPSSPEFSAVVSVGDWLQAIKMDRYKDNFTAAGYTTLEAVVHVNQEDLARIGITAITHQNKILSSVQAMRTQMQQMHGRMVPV
UniProt P06239: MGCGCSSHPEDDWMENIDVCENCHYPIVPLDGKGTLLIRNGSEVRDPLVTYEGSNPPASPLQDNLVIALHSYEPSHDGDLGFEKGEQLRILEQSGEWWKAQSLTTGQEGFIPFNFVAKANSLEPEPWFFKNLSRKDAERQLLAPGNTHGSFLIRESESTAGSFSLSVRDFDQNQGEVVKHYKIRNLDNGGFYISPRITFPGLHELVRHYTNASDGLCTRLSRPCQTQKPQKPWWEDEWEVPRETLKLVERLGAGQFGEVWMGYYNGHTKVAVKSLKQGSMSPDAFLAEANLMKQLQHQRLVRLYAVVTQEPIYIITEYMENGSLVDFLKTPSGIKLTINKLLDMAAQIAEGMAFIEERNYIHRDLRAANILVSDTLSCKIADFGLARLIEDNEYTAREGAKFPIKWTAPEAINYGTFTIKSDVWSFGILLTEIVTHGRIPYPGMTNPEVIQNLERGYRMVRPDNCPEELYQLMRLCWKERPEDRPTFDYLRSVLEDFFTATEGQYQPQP
UniProt P51451: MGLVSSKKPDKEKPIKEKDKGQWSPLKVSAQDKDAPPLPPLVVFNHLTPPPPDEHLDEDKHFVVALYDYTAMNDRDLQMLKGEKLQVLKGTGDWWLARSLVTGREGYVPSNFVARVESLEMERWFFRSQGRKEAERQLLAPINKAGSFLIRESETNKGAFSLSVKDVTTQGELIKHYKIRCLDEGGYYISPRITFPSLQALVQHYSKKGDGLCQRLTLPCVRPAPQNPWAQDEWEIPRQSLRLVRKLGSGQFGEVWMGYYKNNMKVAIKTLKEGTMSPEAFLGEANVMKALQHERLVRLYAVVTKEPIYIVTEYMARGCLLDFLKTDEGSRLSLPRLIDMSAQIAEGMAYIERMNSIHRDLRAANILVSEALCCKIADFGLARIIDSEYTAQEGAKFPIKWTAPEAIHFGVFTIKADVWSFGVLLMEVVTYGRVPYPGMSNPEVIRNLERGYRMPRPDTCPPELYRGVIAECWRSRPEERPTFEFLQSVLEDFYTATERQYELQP
Tyrosine-protein kinase ABL1 (Homo sapiens), P00519, UniProt P00519, whole entry E255K: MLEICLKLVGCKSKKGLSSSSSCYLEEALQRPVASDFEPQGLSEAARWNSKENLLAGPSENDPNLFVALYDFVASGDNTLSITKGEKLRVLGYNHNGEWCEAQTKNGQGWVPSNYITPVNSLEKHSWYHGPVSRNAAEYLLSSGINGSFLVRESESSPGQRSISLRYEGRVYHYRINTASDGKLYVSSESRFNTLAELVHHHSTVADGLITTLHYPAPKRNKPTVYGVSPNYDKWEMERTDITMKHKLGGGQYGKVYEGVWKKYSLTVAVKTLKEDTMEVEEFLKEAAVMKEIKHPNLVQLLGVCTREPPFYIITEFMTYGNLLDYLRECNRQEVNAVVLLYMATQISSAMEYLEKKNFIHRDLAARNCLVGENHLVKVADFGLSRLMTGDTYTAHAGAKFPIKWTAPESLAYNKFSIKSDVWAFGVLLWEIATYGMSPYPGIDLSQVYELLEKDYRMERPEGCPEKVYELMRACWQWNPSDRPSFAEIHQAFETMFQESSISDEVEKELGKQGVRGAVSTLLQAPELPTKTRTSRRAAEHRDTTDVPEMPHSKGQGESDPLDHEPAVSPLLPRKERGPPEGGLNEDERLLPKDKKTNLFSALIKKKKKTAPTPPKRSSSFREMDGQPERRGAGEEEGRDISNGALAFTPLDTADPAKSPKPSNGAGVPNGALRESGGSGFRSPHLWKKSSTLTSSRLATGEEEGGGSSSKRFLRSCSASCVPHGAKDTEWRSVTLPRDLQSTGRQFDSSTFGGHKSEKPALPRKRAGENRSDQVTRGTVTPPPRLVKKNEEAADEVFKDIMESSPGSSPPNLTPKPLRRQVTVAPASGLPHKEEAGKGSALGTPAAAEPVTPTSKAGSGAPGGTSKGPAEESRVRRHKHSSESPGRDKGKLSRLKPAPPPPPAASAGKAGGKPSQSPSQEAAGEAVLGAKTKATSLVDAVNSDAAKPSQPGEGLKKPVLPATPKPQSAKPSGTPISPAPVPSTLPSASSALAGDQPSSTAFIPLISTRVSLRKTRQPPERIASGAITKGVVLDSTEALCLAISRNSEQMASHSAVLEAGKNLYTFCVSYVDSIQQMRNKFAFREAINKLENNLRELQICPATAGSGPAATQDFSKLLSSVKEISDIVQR
UniProt P40763, whole entry: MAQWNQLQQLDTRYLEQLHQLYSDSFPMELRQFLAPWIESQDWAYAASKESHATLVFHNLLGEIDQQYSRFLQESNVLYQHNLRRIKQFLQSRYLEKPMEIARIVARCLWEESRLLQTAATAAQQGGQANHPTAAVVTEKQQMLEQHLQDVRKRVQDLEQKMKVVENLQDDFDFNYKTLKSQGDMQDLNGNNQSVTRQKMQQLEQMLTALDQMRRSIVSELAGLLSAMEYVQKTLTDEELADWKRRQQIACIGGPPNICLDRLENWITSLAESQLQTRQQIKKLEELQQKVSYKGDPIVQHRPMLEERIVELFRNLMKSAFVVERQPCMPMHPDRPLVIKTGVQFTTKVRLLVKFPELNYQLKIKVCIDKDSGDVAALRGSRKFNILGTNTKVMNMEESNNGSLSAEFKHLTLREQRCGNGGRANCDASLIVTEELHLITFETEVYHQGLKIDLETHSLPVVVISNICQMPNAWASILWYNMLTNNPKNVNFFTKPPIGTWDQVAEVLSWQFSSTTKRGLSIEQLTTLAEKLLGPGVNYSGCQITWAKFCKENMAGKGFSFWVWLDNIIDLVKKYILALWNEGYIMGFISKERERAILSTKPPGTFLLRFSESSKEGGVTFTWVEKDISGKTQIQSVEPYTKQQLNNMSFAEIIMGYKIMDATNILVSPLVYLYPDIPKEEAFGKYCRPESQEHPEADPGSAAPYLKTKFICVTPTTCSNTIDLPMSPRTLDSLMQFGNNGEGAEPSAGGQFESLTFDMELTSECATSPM

[2] = molecular target: T2, Proto-oncogene tyrosine-protein kinase Src (Homo sapiens, UniProt P12931); settings: dose 250.0 nM
[3] = molecular target: Tyrosine-protein kinase Yes (Homo sapiens) (UniProt P07947); settings: dose 250.0 nM
[4] = molecular target: Focal adhesion kinase 1 (Homo sapiens) (UniProt Q05397); settings: dose 2500.0 nM
[5] = molecular target: Ephrin type-A receptor 2 (Homo sapiens) (UniProt P29317); settings: dose 25.0 nM
[6] = molecular target: Ephrin type-A receptor 4 (Homo sapiens) (UniProt P54764); settings: dose 25.0 nM
[7] = molecular target: Tyrosine-protein kinase Lck (Homo sapiens) (UniProt P06239); settings: dose 25.0 nM
[8] = molecular target: Ephrin type-A receptor 2 (Homo sapiens) (UniProt P29317); settings: dose 2500.0 nM
[9] = molecular target: Tyrosine-protein kinase Blk (Homo sapiens) (UniProt P51451); settings: dose 2500.0 nM
[10] = molecular target: Tyrosine-protein kinase Lck (Homo sapiens) (UniProt P06239); settings: dose 2500.0 nM
[11] = molecular target: Ephrin type-A receptor 2 (Homo sapiens) (UniProt P29317); settings: dose 250.0 nM
[12] = molecular target: T3, Tyrosine-protein kinase JAK3 (Homo sapiens) (UniProt P52333); settings: dose 2500.0 nM
T3 sequence (whole entry): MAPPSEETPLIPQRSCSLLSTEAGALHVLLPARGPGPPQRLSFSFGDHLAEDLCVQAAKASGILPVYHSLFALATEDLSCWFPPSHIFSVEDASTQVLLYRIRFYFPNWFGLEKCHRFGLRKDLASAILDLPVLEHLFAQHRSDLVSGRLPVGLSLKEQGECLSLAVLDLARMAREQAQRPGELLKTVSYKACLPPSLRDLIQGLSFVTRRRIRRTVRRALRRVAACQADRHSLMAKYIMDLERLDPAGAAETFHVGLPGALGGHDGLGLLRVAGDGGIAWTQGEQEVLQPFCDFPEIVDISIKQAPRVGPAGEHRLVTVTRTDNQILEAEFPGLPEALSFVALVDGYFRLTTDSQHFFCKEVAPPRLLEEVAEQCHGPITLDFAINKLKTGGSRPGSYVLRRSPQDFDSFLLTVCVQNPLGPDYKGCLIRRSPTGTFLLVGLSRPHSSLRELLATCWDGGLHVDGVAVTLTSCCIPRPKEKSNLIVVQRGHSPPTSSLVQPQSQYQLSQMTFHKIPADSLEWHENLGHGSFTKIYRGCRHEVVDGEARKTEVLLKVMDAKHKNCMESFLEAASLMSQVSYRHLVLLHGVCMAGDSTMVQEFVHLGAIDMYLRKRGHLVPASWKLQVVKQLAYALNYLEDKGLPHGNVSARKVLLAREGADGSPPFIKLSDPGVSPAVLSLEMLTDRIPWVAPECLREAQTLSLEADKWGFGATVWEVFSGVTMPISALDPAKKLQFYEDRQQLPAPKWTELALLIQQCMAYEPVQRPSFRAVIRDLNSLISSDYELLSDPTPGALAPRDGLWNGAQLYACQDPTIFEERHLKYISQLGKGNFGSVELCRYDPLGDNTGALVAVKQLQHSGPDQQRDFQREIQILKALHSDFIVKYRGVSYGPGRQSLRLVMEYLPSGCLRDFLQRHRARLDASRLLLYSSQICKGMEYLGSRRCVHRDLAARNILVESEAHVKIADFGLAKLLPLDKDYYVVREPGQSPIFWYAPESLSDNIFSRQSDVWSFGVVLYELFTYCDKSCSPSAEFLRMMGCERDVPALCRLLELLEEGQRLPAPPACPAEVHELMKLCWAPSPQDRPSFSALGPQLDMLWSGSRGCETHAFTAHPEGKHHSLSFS

[13] = molecular target: T2, Proto-oncogene tyrosine-protein kinase Src; settings: dose 2500.0 nM
[14] = molecular target: T1, Tyrosine-protein kinase TXK (Homo sapiens); settings: dose 25.0 nM
[15] = molecular target: Tyrosine-protein kinase Yes (Homo sapiens) (UniProt P07947); settings: dose 2500.0 nM
[16] = molecular target: Ephrin type-A receptor 4 (Homo sapiens) (UniProt P54764); settings: dose 2500.0 nM
[17] = molecular target: T1, Tyrosine-protein kinase TXK (Homo sapiens); settings: dose 2500.0 nM
[18] = molecular target: Focal adhesion kinase 1 (Homo sapiens) (UniProt Q05397); settings: dose 250.0 nM
[19] = molecular target: T4, Tyrosine-protein kinase JAK2 (Homo sapiens, UniProt O60674); settings: dose 25.0 nM
[20] = molecular target: T3, Tyrosine-protein kinase JAK3 (Homo sapiens); settings: dose 25.0 nM
[21] = molecular target: T4, Tyrosine-protein kinase JAK2; settings: dose 250.0 nM
[22] = molecular target: Focal adhesion kinase 1 (Homo sapiens) (UniProt Q05397); settings: dose 25.0 nM
[23] = molecular target: Tyrosine-protein kinase Lck (Homo sapiens) (UniProt P06239); settings: dose 250.0 nM
[24] = molecular target: Tyrosine-protein kinase Blk (Homo sapiens) (UniProt P51451); settings: dose 250.0 nM
[25] = molecular target: Tyrosine-protein kinase Yes (Homo sapiens) (UniProt P07947); settings: dose 25.0 nM
[26] = system: Tyrosine-protein kinase ABL1 (Homo sapiens), P00519 [E255K]; settings: dose 25.0 nM
[27] = molecular target: Tyrosine-protein kinase Blk (Homo sapiens) (UniProt P51451); settings: dose 25.0 nM
[28] = system: Tyrosine-protein kinase ABL1 (Homo sapiens), P00519 [E255K]; settings: dose 2500.0 nM
[29] = molecular target: T4, Tyrosine-protein kinase JAK2; settings: dose 2500.0 nM
[30] = system: Tyrosine-protein kinase ABL1 (Homo sapiens), P00519 [E255K]; settings: dose 250.0 nM
[31] = molecular target: Ephrin type-A receptor 4 (Homo sapiens) (UniProt P54764); settings: dose 250.0 nM
[32] = molecular target: T3, Tyrosine-protein kinase JAK3 (Homo sapiens); settings: dose 250.0 nM
[33] = molecular target: Signal transducer and activator of transcription 3 (Homo sapiens) (UniProt P40763); assay: Induction of thermal stabilization of recombinant STAT3 (127 to 668 residues)(unknown origin) assessed as reduction in fluorescence intensity incubated for 3 hrs by SYPRO orange dye based DSF analysis; settings: dose 100.0 µM
[34] = molecular target: Signal transducer and activator of transcription 3 (Homo sapiens) (UniProt P40763); assay: Induction of thermal stabilization of STAT3 (unknown origin) at 100 uM by thermal shift assay
[35] = molecular target: Signal transducer and activator of transcription 3 (Homo sapiens) (UniProt P40763); assay: Inhibition of STAT3 in oncostatin M-stimulated human U3A cells at 20 uM pretreated with compound for 1 hr followed by oncostatin M induction and measured after 6 hrs by luciferase assay relative to control; format: cell-based
[36] = molecular target: T5, High affinity nerve growth factor receptor (Homo sapiens, UniProt P04629); settings: dose 100.0 nM
[37] = molecular target: Signal transducer and activator of transcription 3 (Homo sapiens) (UniProt P40763); assay: Binding affinity to STAT3 (unknown origin) SH2 domain by FP assay
[38] = molecular target: T5, High affinity nerve growth factor receptor; settings: dose 100.0 nM; remark: listed apart in the source
[39] = molecular target: T5, High affinity nerve growth factor receptor; settings: dose 10.0 nM
[40] = molecular target: T5, High affinity nerve growth factor receptor; settings: dose 100.0 nM; remark: listed apart in the source

Compound: CC(=O)Nc1cccc(-c2cnc(N)c(N[C@H](C)c3ccccc3)n2)c1
inhibition [1]: 61%
inhibition [2]: 33%
inhibition [3]: 30%
inhibition [4]: 92%
inhibition [5]: -1%
inhibition [6]: -3%
inhibition [7]: 18%
inhibition [8]: 67%
inhibition [9]: 84%
inhibition [10]: 86%
inhibition [11]: 15%
inhibition [12]: 59%
inhibition [13]: 79%
inhibition [14]: 18%
inhibition [15]: 75%
inhibition [16]: 57%
inhibition [17]: 86%
inhibition [18]: 47%
inhibition [19]: 22%
inhibition [20]: 5%
inhibition [21]: 76%
inhibition [22]: 6%
inhibition [23]: 50%
inhibition [24]: 24%
inhibition [25]: 9%
inhibition [26]: 7%
inhibition [27]: 1%
inhibition [28]: 71%
inhibition [29]: 87%
inhibition [30]: 28%
inhibition [31]: 6%
inhibition [32]: 11%

Compound: CC(Nc1nc(-c2cccnc2)cnc1N)c1ccccc1 (racemic)
Activity [33]: Dose-dependent-effect
Activity [34]: Active
inhibition [35]: 40%
Activity [37]: Active

Now from value to compound:

Activity [33]: Dose-dependent-effect
Activity [34]: Active
inhibition [35]: 40%
inhibition [36]: 36%
Activity [37]: Active
inhibition [38]: 55%
Compound: CC(Nc1nc(-c2cccc(N(C)C)c2)cnc1N)c1ccccc1 (racemic)

inhibition [39]: 41%
inhibition [36]: 56%
inhibition [38]: 100%
inhibition [40]: 76%
Compound: C[C@@H](Nc1nc(-c2cccc(N(C)C)c2)cnc1N)c1ccccc1

inhibition [39]: 7%
inhibition [36]: 10%
inhibition [38]: 40%
inhibition [40]: 0%
Compound: C[C@H](Nc1nc(-c2cccc(N(C)C)c2)cnc1N)c1ccccc1

Reference: ChEMBL document CHEMBL6134888, “Challenging the "Undruggable"─Targeting STAT3 but Identifying Potent TrkA-Targeted Inhibitors” (J Med Chem, 2025)
